Measured affinities in a library of Ab-91 heavy chain variants

From the AlphaSeq antibody data of Engelhart et al. 2022 (doi:10.1038/s41597-022-01779-4), copy in the FLAb collection.

All variants were tested on one target, the spike HR2 peptide PDVDLGDISGINAS (SARS-CoV-2).

Parent scFv Ab-91: VL joined to VH by three GGGGS repeats. Changes lie in the heavy chain CDRs alone.
VL: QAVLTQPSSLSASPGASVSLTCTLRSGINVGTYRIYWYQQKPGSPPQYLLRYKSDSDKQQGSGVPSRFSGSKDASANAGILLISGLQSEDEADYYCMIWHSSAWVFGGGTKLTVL
VH: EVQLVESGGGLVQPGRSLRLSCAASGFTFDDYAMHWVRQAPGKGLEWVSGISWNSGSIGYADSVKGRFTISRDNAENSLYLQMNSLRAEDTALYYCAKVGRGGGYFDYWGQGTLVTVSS

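Phage display of a naive human antibody library on the peptide gave the parent. Variants in AAYL51 differ from the parent at up to three CDR positions; double and triple changes were sampled at random. In AlphaSeq, yeast of one mating type display the scFv and yeast of the other type display the target. After mating in shaken culture at 30 °C for 16 h, diploids were selected and their barcode pairs sequenced. Scores were corrected for input abundance and mapped to Kd with protein pairs of known affinity run in the same pool. Each pool was mated in three replicate cultures.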

Positions count from residue 1 of the parent VH; I51T puts T in place of I. Values are log10 of the apparent Kd in nM; lower means stronger binding. A mean of the replicates is given; it leaves out those without a signal. "ND" marks a missing value. The strain was present, yet no cells mated with the target were sequenced in that replicate, which points to weak or no binding. Three control strains display no target. For library AAYL51, 21% of the pairings with them gave a signal, with a median of 4.54 and one signal in twenty below 3.26, so weak values seen in few replicates may be background. For each scFv, signals with the empty controls are counted beside the result, with their mean in brackets.

changes,"replicates, log10 nM",mean log10 Kd (nM),empty controls
I51T G103Q G104W,ND ND 3.65,3.65,2 of 9 (4.48)
H35P I51K R101F,ND ND ND,ND,0 of 9
G50I W53H S63H,4.88 6.38 4.23,5.16,3 of 9 (4.83)
D30C M34V S63Y,4.05 4.36 4.40,4.27,1 of 9 (4.37)
D30R M34K D62V,ND ND 3.91,3.91,0 of 9
F27N F106D Y108F,ND ND ND,ND,0 of 9
F27C I51L G100D,ND ND ND,ND,2 of 9 (4.11)
M34R S52T,3.96 ND ND,3.96,0 of 9
G50M G100N R101V,ND 5.25 ND,5.25,0 of 9
Y32M G102R G104C,2.06 1.91 1.90,1.95,0 of 9
D30W S57W,ND ND 3.99,3.99,1 of 9 (4.20)
A33L H35A F106L,ND ND ND,ND,4 of 9 (3.76)
W53R R101D F106K,3.17 3.18 3.23,3.19,3 of 9 (5.50)
G56K Y60I G100A,2.58 2.79 2.39,2.59,0 of 9
W53K S55P F106K,4.04 ND ND,4.04,0 of 9
S55F D62H S63V,ND ND ND,ND,0 of 9
T28M Y105V D107C,3.44 2.58 2.23,2.75,0 of 9
G26F G103R Y105M,5.18 6.11 ND,5.64,3 of 9 (4.28)
Y32N A33W M34S,ND ND ND,ND,2 of 9 (5.40)
D30W A61S G102H,3.79 ND ND,3.79,1 of 9 (4.16)
V64R G103H D107S,ND ND ND,ND,0 of 9
A33Q S63E D107L,4.45 ND ND,4.45,3 of 9 (4.71)
F27M H35W G50P,3.98 ND ND,3.98,2 of 9 (4.34)
F27H F29R D31N,1.33 1.31 0.92,1.19,8 of 9 (4.92)
S55T G59L G100T,ND ND ND,ND,0 of 9
W53H G104T Y108Q,1.75 1.78 1.58,1.71,3 of 9 (6.11)
G59W D62Q G104H,ND ND ND,ND,0 of 9
F27S S52Q,ND ND ND,ND,0 of 9
D31L I51K K65N,ND ND ND,ND,2 of 9 (4.46)
D30A D31F,0.91 0.75 0.18,0.61,0 of 9
A33G W53S K65F,0.59 0.67 -0.07,0.39,0 of 9
Y32V S63F Y108F,ND ND ND,ND,0 of 9
W53G K65Q Y108D,0.97 0.88 0.28,0.71,5 of 9 (4.38)
G59V,ND ND ND,ND,1 of 9 (4.43)
S52L S57G V64A,ND ND ND,ND,3 of 9 (4.09)
G26L D30V G104F,4.45 4.89 5.35,4.90,3 of 9 (5.55)

Top 4 of the variants detected in all replicates, tightest first:

{"changes": "A33G W53S K65F", "replicates, log10 nM": "0.59 0.67 -0.07", "mean log10 Kd (nM)": "0.39", "empty controls": "0 of 9"}
{"changes": "D30A D31F", "replicates, log10 nM": "0.91 0.75 0.18", "mean log10 Kd (nM)": "0.61", "empty controls": "0 of 9"}
{"changes": "W53G K65Q Y108D", "replicates, log10 nM": "0.97 0.88 0.28", "mean log10 Kd (nM)": "0.71", "empty controls": "5 of 9 (4.38)"}
{"changes": "F27H F29R D31N", "replicates, log10 nM": "1.33 1.31 0.92", "mean log10 Kd (nM)": "1.19", "empty controls": "8 of 9 (4.92)"}